Laboratory results published in PubChem BioAssay AID485347 (National Center for Advancing Translational Sciences (NCATS), 2010).
Values joined by “and” are separate entries in the source; they are usually repeats but may differ in a detail not shown here. Equal entries are not always repeated. The entries are a selection whose mix differs from that of the whole data set. Some results for these compounds are left out of this collection, so the calls shown say nothing about other tests. Active and inactive are the calls of the source.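 Rule for the calls: active = potentiation over 3 SD above the plate norm (cut at about 30% in these data); inactive = the rest.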

Protein sequences, listed by entry. Tags and fused reporters are not part of them.
UniProt P14416, whole entry: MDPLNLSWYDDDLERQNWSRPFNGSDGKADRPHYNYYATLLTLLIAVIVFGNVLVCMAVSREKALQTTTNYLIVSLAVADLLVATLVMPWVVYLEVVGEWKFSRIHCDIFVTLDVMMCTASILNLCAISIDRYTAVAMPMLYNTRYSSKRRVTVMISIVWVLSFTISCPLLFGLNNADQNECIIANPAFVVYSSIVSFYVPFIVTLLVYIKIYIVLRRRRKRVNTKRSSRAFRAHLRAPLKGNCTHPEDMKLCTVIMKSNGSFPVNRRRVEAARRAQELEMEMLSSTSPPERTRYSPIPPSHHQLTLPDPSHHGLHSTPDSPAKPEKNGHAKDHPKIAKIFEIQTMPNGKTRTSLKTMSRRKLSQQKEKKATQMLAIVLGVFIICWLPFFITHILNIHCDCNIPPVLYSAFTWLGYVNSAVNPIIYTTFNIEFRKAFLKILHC

These compounds were tested against D(2) dopamine receptor (Homo sapiens) (UniProt P14416) (assay: HTS Assay for Positive Allosteric Modulators of the Human D2 Dopamine Receptor: Primary Screen for Potentiators). Settings: HEK293 T-REx D2, calcium flux, EC20 dopamine potentiation; at 10 µM; active compounds read high.
Source text: NIH Chemical Genomics Center [NCGC] NIH Molecular Libraries Probe Centers Network [MLPCN] MLPCN Grant: NS064831-01 Assay Submitter (PI): David Sibley Dopamine receptors (DARs) are involved in the etiology and/or therapy of a number of neuropsychiatric and endocrine disorders. For instance, all receptor-based antiparkinsonian drugs work via stimulating the D2 DAR subtype whereas all FDA-approved antipsychotic agents are antagonists of this receptor. […] There are three different types of allosteric modulators that we are seeking, two of which will stimulate or augment receptor signaling, allosteric agonists and potentiators, while the third, allosteric antagonists, will attenuate receptor signaling. The present primary screening assay measures compound potentiation of an EC20 dopamine response by tracking calcium flux in a […], inducible Hek293 Trex D2 cell line.
Freshly passaged cells are plated in 1536 well black, clear bottom plates at a density of 4000 cells/well in 3 ul of complete media containing 1x tetracycline inducer. After an overnight incubation at 30 C in 5% CO2, cells are loaded with 2 ul of the no wash Calcium Assay Kit (ABD Bioquest) and incubated at room temperature for 30 to 90 minutes. A 10 cycle (1 second/cycle) baseline measurement is taken and then the FDSS online 1536 pintool delivers 23 nl of compound library (as well as dopamine controls) to the plate. The plate is measured for kinetically at 1 cycle/sec for 180 seconds and is considered to be the agonist portion of the assay (eg, compounds which activate a positive calcium response during this portion are flagged as potential agonists). Following the 180 second read, 1 ul of an EC20 of dopamine is delivered by an onboard pipette head. Measurements are taken kinetically for an additional 180 seconds.
Note: 0% is about no effect.

Q: How did the potentiation turn out when `CN(C)C1(CNC(=O)c2ccc(Br)cc2)CCCCC1` was run?
A: inactive: -27.1%

Q: For `COc1cc(C(=O)NCC2(N(C)C)CCCCC2)c([N+](=O)[O-])cc1OC`, which potentiation is on record?
A: inactive: -8.65%

Q: `COc1ccc(Cl)cc1C(=O)NCC1(N(C)C)CCCCC1` was tested. Which potentiation did it give?
A: inactive: -25.3%

Q: For `COc1cccc(C(=O)NCC2(N3CCCCC3)CCCCC2)c1`, which potentiation is on record?
A: inactive: -5.63%

Q: How did the potentiation turn out when `COc1ccc(C(=O)NCC2(N(C)C)CCCCC2)cc1Cl` was run?
A: inactive: -0.156%

Q: With `O=C(NCC1(N2CCCCC2)CCCCC1)c1cccc(Cl)c1` as the compound, how does the potentiation read?
A: inactive: -12.2%

Q: Which potentiation does the source give for `COc1cccc(C(=O)NCC2(N3CCOCC3)CCCCC2)c1` here?
A: inactive: -22.1%

Q: `CC(C)COc1ccc(C(=O)NCC2(N(C)C)CCCCC2)cc1` was tested. Which potentiation did it give?
A: inactive: -12.4%

Q: Which potentiation does the source give for `COc1ccc(Br)c(C(=O)NCC2(N3CCCCC3)CCCCC2)c1` here?
A: inactive: 9.39%

Q: For `Cc1cccc(C(=O)NCC2(N(C)C)CCCCC2)c1`, which potentiation is on record?
A: inactive: 7.27%

Q: `COc1cc(C(=O)NCC2(N(C)C)CCCCC2)cc(OC)c1OC` was tested. Which potentiation did it give?
A: inactive: -21.9%

Q: With `CC(C)Oc1ccc(C(=O)NCC2(N(C)C)CCCCC2)cc1` as the compound, how does the potentiation read?
A: inactive: -13.3% and inactive: 2.39%

Q: How did the potentiation turn out when `CN(C)c1cccc(C(=O)NCC2(N(C)C)CCCCC2)c1` was run?
A: inactive: -14.8%

Q: With `O=C(NCC1(N2CCCCC2)CCCCC1)c1cc([N+](=O)[O-])ccc1Cl` as the compound, how does the potentiation read?
A: inactive: 4.02%

Q: `CN1[C@@H]2CC[C@H]1CC(OC(=O)C(O)(c1ccccc1)c1ccccc1)C2` (stereo partly drawn) was tested. Which potentiation did it give?
A: inactive: -2.68%

Q: How did the potentiation turn out when `COc1cc(SC)ccc1C(=O)NCC1(N(C)C)CCCCC1` was run?
A: inactive: -19.5%

Q: `CCN(CC)CC(C)C(C)OC(=O)C(O)(c1ccccc1)c1ccccc1` (stereo not drawn) was tested. Which potentiation did it give?
A: inactive: 3.56%

Q: Which potentiation does the source give for `CN(C)C1(CNC(=O)c2cccc(Cl)c2)CCCCC1` here?
A: inactive: -27%

Q: `CC(C)N1C(=O)CC2(CCN(CCOC(=O)C(O)(c3ccccc3)c3ccccc3)CC2)C1=O` was tested. Which potentiation did it give?
A: inactive: 6.79%

Q: How did the potentiation turn out when `Cc1ccc(C(=O)NCC2(N3CCCCC3)CCCCC2)cc1` was run?
A: inactive: -20.7%

Q: `CN(C)C1(CNC(=O)c2ccccc2F)CCCCC1` was tested. Which potentiation did it give?
A: inactive: -8.4%

Q: For `CN(C)C1CCCC1OC(=O)C(O)(c1ccccc1)c1ccccc1` (stereo not drawn), which potentiation is on record?
A: inactive: 7.87%

Q: Which potentiation does the source give for `CN(C)c1ccc(C(=O)NCC2(N(C)C)CCCCC2)cc1` here?
A: inactive: -16.8%

Q: How did the potentiation turn out when `CN(C)C1(CNC(=O)c2ccccc2[N+](=O)[O-])CCCCC1` was run?
A: inactive: -6.16%

Q: How did the potentiation turn out when `Cc1ccccc1C(=O)NCC1(N2CCCCC2)CCCCC1` was run?
A: inactive: -3.41%

Q: Which potentiation does the source give for `CCCCOc1ccccc1C(=O)NCC1(N(C)C)CCCCC1` here?
A: inactive: -2.27%

Q: `O=C(NCC1(N2CCCCC2)CCCCC1)c1cc(F)c(F)cc1Cl` was tested. Which potentiation did it give?
A: inactive: -3.97%

Q: Which potentiation does the source give for `C=CCN1CCN(CCOC(=O)C(O)(c2ccccc2)c2ccccc2)CC1` here?
A: inactive: -12.8%

Q: Which potentiation does the source give for `CCOc1cccc(C(=O)NCC2(N(C)C)CCCCC2)c1` here?
A: inactive: -24.1%

Q: With `COc1ccc(C(=O)NCC2(N(C)C)CCCCC2)cc1` as the compound, how does the potentiation read?
A: inactive: 4.44%

Q: With `O=C(NCC1(N2CCCCC2)CCCCC1)c1cccc(Br)c1` as the compound, how does the potentiation read?
A: inactive: -9.6%

Q: For `Cc1cc(C(=O)NCC2(N3CCCCC3)CCCCC2)ccc1[N+](=O)[O-]`, which potentiation is on record?
A: inactive: 5.67%

Q: For `CCN1CCCC(OC(=O)C2(O)c3ccccc3C=Cc3ccccc32)C1` (stereo not drawn), which potentiation is on record?
A: inactive: -10.4%
